{"sequences": {"note": "Amino acid sequences for entries named in this document (tags omitted).", "UniProt O00763, whole entry": "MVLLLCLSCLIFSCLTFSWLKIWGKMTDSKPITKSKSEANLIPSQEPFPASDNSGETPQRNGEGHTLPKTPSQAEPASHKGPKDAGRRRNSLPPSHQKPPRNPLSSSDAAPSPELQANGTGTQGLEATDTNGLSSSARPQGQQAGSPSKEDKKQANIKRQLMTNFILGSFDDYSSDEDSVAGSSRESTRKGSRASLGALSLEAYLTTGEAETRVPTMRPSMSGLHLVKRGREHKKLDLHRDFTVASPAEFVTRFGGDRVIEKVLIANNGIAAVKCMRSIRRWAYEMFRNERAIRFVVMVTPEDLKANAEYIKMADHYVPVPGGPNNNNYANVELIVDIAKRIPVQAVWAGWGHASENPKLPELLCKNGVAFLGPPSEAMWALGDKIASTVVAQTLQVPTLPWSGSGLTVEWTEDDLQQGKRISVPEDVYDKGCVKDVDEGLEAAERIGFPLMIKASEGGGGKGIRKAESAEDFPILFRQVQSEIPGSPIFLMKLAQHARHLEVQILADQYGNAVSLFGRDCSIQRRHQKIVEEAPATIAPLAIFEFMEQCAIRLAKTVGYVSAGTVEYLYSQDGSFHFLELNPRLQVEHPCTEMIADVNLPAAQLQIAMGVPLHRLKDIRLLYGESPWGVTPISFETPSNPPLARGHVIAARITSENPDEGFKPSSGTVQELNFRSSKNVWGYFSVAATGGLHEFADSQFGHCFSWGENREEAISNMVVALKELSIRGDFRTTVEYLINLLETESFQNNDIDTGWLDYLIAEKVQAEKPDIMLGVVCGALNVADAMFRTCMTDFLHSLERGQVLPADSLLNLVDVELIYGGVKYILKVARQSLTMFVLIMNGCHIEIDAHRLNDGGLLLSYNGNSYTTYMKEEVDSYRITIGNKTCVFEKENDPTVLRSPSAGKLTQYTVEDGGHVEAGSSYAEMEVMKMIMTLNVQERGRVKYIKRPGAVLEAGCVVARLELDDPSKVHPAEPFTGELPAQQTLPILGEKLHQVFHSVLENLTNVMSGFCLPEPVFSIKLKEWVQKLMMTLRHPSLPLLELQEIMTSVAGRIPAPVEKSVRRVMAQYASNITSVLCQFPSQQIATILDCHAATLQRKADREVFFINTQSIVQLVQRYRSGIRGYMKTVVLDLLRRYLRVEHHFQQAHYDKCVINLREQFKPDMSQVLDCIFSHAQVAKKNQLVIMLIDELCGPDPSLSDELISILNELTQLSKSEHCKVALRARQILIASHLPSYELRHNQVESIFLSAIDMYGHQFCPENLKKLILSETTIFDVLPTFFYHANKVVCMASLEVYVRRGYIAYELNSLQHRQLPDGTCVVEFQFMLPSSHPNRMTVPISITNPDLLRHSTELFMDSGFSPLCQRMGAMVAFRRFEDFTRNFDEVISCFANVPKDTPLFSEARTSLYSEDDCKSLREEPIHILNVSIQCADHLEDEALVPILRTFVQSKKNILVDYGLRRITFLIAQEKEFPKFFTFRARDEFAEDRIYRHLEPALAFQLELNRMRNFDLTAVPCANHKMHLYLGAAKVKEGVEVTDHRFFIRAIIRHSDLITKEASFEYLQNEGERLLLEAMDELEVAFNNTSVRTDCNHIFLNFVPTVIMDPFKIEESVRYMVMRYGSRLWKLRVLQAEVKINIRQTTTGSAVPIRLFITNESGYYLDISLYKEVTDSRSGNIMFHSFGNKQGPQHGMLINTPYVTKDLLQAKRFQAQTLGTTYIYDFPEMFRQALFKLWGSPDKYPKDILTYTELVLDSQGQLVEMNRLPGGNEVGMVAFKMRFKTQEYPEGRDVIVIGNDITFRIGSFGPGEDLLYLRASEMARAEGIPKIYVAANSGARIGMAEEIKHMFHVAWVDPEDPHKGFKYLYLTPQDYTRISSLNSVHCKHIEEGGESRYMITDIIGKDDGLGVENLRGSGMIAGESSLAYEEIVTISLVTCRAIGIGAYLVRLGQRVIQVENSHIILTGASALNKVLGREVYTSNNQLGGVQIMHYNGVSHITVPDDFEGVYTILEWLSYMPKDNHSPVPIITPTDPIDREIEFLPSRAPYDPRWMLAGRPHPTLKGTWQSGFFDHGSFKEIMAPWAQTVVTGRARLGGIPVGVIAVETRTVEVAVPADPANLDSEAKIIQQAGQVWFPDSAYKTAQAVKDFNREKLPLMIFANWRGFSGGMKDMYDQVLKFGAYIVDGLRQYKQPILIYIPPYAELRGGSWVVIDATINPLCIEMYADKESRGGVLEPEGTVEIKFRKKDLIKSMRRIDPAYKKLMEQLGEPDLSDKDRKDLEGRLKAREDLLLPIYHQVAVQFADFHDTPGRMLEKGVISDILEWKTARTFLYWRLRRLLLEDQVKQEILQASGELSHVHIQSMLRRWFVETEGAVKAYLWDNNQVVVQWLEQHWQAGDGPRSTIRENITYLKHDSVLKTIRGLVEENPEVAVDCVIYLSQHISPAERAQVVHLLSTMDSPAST"}, "source": "patent US10800791B2", "about": "“Triazole ACC inhibitors and uses thereof” (Gilead Apollo, LLC, priority 2015, dated 2020)", "target": "human (hACC2) (Homo sapiens, UniProt O00763)", "experiment": "In vitro ACC inhibition assay (ADP-Glo), hACC2", "format": "biochemical", "experimental": "The detailed procedure is as follows. […] 10 μL ADP glo reagent was added. […] 20 μL kinase detection reagent was added.", "note": "Like-named read-outs stand apart in the source and are kept apart here.", "data": [{"compound": "COc1ccc(F)cc1[C@@H](Cn1c(=O)n([C@@H](C)C(=O)N(C)C(C)C)c(=O)c2c(C)c(-n3nccn3)sc21)OCCO", "values": [{"measurement": "IC50", "setting": "read-out: hACC2 (in vitro ACC2 Inhibition Assay, IC50), Table 2a, 5 nM ACC2, 20 μM ATP, 20 μM acetyl-CoA", "value": "> 0.04", "unit": "µM"}, {"measurement": "IC50", "setting": "read-out: hACC2 (in vitro ACC2 Inhibition Assay, IC50), Table 2b, additional results, 5 nM ACC2, 20 μM ATP, 20 μM acetyl-CoA", "value": "> 0.04", "unit": "µM"}]}]}
